The target in the assay is CCK-A (Rattus norvegicus, UniProt P30551). In words: biochemical. Conditions: CCK RECEPTOR BINDING RESULTS IC50 125I-CCK Pancreas. Here is the method:
The CCK-A and CCK-B antagonising activity of the compounds described herein was evaluated using the assays described in published European patent application no. 0514133. The method essentially involves determining the concentration of the test compound required to displace 50% of the specific ^125 I-CCK from rat pancreas (CCK-A) or guinea pig brain (CCK-B). The data in Table 1 were obtained for compounds of the Examples.

Sequences of proteins named here, by UniProt entry; tags and fusion partners are left off.
UniProt P30551, whole entry: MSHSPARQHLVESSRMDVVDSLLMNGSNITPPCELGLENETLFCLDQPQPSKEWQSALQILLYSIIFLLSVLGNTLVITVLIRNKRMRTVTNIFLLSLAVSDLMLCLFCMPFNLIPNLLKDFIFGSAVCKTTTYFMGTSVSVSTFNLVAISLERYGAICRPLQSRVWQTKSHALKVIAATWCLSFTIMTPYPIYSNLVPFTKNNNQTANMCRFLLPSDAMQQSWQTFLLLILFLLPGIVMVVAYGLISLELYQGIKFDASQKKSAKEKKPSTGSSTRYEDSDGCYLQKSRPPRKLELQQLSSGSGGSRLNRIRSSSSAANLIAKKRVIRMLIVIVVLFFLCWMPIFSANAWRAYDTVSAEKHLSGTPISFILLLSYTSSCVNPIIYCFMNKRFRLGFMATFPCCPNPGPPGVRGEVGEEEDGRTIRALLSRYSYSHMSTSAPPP

Counter-ions that a name gives are not always drawn.

The IC50 is the concentration that gives 50% inhibition. The low end stands for greater potency, the high end for weaker potency. As to `Cc1cccc(NC(=O)NC2N=C(N3CC4CCC(CC4)C3)c3ccccc3N(C)C2=O)c1` (single isomer, unassigned; (-)) [Example 33, (-)-N-[5-(3-Azabicyclo[3,2,2]nonan-3-yl)-2,3-dihydro-1-methyl-2-oxo-1H-1,4-benzodiazepin-3-yl]-N'-[3-methylphenyl]urea Hydrochloride], the IC50 is 1600 nM.

These data come from patent US5618812A, “Benzodiazepine derivatives” (Merck Sharp & Dohme, Ltd., priority 1992, dated 1997).
